Source: PubChem BioAssay AID588855 (National Center for Advancing Translational Sciences (NCATS), 2011)
Where “and” joins values, the source holds several entries; their conditions need not be identical. Equal values may be shown once. The entries are a selection whose mix differs from that of the whole data set. Some of these compounds have results that are not shown, active ones among them. Inconclusive results are not listed. Calls of active or inactive are those of the source. Calls follow the shape of the dose curve; as a rule, active = well fitted inhibition curve with a large enough effect; inconclusive = small, poorly fitted or top-dose-only effect; inactive = no such curve, though single readings can be large or run the other way.

Assay: qHTS for Inhibitors of TGF-b; also: nearly all actives have a fitted effect of over 65% in size
Conditions: HepG2 CAGA-GFP TGF-b/SMAD3 reporter, GFP fluorescence, 18 h, TGF-beta stimulated, 500 pg/mL final; at 46.1 µM (top of the series)
% is scaled to controls: 0 for no effect and ±100 for the full control effect.

Structure (SMILES)	activity, negative = inhibition
COc1cc(C(=O)NCC2(N(C)C)CCCCC2)c([N+](=O)[O-])cc1OC	inactive: 0.0518%
CN(C)C1(CNC(=O)c2ccc(Br)cc2)CCCCC1	inactive: 5.45%
O=C(CBr)c1ccc(Cl)cc1	inactive: -11%
O=C(NCC1(N2CCCCC2)CCCCC1)c1cccc(Cl)c1	inactive: 0.0902%
COc1ccc(C(=O)NCC2(N(C)C)CCCCC2)cc1Cl	inactive: 17.1%
COc1ccc(Cl)cc1C(=O)NCC1(N(C)C)CCCCC1	inactive: -25.5%
COc1cccc(C(=O)NCC2(N3CCCCC3)CCCCC2)c1	inactive: -4.63%
CC(C)COc1ccc(C(=O)NCC2(N(C)C)CCCCC2)cc1	inactive: 6.1%
O=C(OC1CN2CCC1CC2)C(CO)(c1ccccc1)c1ccccc1 (configuration not stated)	inactive: 15.1%
COc1cccc(C(=O)NCC2(N3CCOCC3)CCCCC2)c1	inactive: 3.55%
CN(C)c1cccc(C(=O)NCC2(N(C)C)CCCCC2)c1	inactive: 1.77%
O=C(OCCN1CCCC1)C(O)(c1ccccc1)c1ccccc1	inactive: 0.0819%
CC(C)Oc1ccc(C(=O)NCC2(N(C)C)CCCCC2)cc1	inactive: 22.4% and inactive: -0.945%
COc1ccc(Br)c(C(=O)NCC2(N3CCCCC3)CCCCC2)c1	inactive: -24.4%
COc1cc(C(=O)NCC2(N(C)C)CCCCC2)cc(OC)c1OC	inactive: 2.85%
Cc1cccc(C(=O)NCC2(N(C)C)CCCCC2)c1	inactive: 5.73%
C=C(C)C#CC(O)(C(=O)OC1CCN(C)CC1)c1ccccc1 (configuration not stated)	inactive: 0.691%
CN1[C@@H]2CC[C@H]1CC(OC(=O)C(O)(c1ccccc1)c1ccccc1)C2 (some centres not stated)	inactive: 8.48%
O=C(NCC1(N2CCCCC2)CCCCC1)c1cc([N+](=O)[O-])ccc1Cl	inactive: 0.522%

Structure (SMILES)	activity, negative = inhibition
CN(C)C1(CNC(=O)c2ccccc2F)CCCCC1	inactive: 6.32%
Cc1ccc(C(=O)NCC2(N3CCCCC3)CCCCC2)cc1	inactive: -11.9%
CC(C)N1C(=O)CC2(CCN(CCOC(=O)C(O)(c3ccccc3)c3ccccc3)CC2)C1=O	inactive: 3.53%
COc1cc(SC)ccc1C(=O)NCC1(N(C)C)CCCCC1	inactive: 4.09%
CCN(CC)CC(C)C(C)OC(=O)C(O)(c1ccccc1)c1ccccc1 (configuration not stated)	inactive: -0.605%
CN(C)C1(CNC(=O)c2cccc(Cl)c2)CCCCC1	inactive: -22%
CCCCOc1ccccc1C(=O)NCC1(N(C)C)CCCCC1	inactive: 2.65%
CN(C)C1CCCC1OC(=O)C(O)(c1ccccc1)c1ccccc1 (configuration not stated)	inactive: 14.4%
CN(C)c1ccc(C(=O)NCC2(N(C)C)CCCCC2)cc1	inactive: 6.39%
CN(C)C1(CNC(=O)c2ccccc2[N+](=O)[O-])CCCCC1	inactive: 23.3%
Cc1ccccc1C(=O)NCC1(N2CCCCC2)CCCCC1	inactive: 16.9%
O=C(NCC1(N2CCCCC2)CCCCC1)c1cccc(Br)c1	inactive: 3.81%
Cc1cc(C(=O)NCC2(N3CCCCC3)CCCCC2)ccc1[N+](=O)[O-]	inactive: 5.87%
CCN1CCCC(OC(=O)C2(O)c3ccccc3C=Cc3ccccc32)C1 (configuration not stated)	inactive: -9.9%
CCOc1cccc(C(=O)NCC2(N(C)C)CCCCC2)c1	inactive: 26.3%
COc1ccc(C(=O)NCC2(N(C)C)CCCCC2)cc1	inactive: 15.4%
O=C(NCC1(N2CCCCC2)CCCCC1)c1cc(F)c(F)cc1Cl	inactive: 1.28%
C=CCN1CCN(CCOC(=O)C(O)(c2ccccc2)c2ccccc2)CC1	inactive: -2.66%
